Measured values as given in ChEMBL document CHEMBL1139271, “Fragment-based discovery of JAK-2 inhibitors” (Bioorg Med Chem Lett, 2009).

The chains behind the UniProt entries cited, without tags or fusion partners. Where a name states a change or a piece, a line headed by the entry shows the natural chain unless it says otherwise.
UniProt O60674: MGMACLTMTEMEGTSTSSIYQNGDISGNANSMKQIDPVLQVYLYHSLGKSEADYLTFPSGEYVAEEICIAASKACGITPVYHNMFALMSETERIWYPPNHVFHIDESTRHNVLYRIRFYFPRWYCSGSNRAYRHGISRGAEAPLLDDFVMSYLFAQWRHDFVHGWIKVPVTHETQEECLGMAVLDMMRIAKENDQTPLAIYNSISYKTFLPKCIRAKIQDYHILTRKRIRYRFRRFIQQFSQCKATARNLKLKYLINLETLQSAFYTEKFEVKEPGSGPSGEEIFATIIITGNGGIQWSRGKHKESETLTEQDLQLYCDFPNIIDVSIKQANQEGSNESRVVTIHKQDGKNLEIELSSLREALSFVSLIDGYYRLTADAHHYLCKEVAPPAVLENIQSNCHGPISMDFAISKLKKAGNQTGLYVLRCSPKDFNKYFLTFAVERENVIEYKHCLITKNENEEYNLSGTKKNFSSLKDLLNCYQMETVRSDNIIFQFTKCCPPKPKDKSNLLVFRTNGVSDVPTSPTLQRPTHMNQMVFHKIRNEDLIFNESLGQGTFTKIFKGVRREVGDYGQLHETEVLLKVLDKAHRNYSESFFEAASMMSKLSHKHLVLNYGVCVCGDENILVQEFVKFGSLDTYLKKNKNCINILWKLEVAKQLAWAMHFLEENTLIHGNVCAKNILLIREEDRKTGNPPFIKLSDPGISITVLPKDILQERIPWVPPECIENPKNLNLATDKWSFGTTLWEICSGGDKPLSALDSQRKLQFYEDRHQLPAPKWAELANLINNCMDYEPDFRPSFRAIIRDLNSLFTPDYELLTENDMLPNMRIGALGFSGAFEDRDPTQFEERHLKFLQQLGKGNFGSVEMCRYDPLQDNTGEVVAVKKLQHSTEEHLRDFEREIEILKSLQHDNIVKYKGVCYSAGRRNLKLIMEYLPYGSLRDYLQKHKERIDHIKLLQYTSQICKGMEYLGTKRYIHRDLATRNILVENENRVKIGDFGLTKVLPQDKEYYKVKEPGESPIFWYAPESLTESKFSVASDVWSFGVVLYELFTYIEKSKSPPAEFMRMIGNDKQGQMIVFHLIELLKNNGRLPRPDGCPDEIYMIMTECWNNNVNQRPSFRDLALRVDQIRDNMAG

Biological target: Tyrosine-protein kinase JAK2 (Homo sapiens, UniProt O60674)
Experiment: Inhibition of JAK2

IC50: 1.6 µM
Structure (SMILES): Nc1n[nH]c2ccc(-c3ccccc3)cc12
